In this experiment the target is T1, FLAG-tagged USF-1 (wild type, overexpressed in cells) (UniProt P22415).
T1 sequence (looked up): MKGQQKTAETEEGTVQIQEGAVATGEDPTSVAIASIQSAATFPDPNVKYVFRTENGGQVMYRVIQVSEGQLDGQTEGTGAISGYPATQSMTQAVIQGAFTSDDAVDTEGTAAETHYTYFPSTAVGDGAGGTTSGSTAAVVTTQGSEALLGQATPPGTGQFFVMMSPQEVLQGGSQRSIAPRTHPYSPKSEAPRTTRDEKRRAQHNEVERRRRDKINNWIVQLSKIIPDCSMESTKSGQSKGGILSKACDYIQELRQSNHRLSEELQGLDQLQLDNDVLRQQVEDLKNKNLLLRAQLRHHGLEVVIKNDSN
Put plainly: cell-based or functional assay.

In turn, “DNA-dependent protein kinase (DNA-PK), endogenous (a stretch of the chain, sequence left out) (enzyme)” came in with an FAS promoter activity (luciferase reporter) after siRNA knockdown of DNA-PK of 65 % reduction.

Values taken from US20110275699A1, “Treatment For Obesity And Diabetes” (University of California, priority 2010, published 2011).
